{
  "source": "patent US20110086797A1",
  "about": "“CONTROL OF SPORE GERMINATION” (priority 2007, published 2011)",
  "tested_on": "bacterial cells",
  "test": "Lysis of bacterial cells",
  "conditions": "His-tagged purified protein",
  "data": [
    {"substance": "YocA: His-tagged, cloned and purified B. subtilis YocH protein of the MltA family", "values": [
      {"measurement": "lysis of bacterial cells (result in words)", "value": "lyse bacterial cells similar to hen egg white lysozyme"}
    ]}
  ]
}
